Data taken from ChEMBL document CHEMBL4725350, “2-Oxaadamant-1-yl Ureas as Soluble Epoxide Hydrolase Inhibitors: In Vivo Evaluation in a Murine Model of Acute Pancreatitis” (J Med Chem, 2020).

Protein sequences, listed by entry. Tags and fused reporters are not part of them.
UniProt P34913, whole entry: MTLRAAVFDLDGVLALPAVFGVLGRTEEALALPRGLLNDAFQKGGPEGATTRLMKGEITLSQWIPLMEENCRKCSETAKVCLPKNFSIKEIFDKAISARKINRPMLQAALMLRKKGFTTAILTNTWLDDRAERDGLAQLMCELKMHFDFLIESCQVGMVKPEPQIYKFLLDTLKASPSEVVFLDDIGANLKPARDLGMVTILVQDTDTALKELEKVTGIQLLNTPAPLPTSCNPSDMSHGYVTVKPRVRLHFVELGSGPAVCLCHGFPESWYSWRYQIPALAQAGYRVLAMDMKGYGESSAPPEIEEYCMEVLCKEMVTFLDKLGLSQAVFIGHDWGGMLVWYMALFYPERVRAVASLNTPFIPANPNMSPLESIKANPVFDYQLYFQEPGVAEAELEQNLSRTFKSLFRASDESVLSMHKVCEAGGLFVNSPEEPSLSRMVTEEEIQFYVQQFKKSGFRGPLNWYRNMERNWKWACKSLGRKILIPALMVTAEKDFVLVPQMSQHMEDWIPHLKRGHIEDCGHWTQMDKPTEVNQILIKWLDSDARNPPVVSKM

The molecules below were run against Bifunctional epoxide hydrolase 2 (Homo sapiens, UniProt P34913).

Going from `CC(C)S(=O)(=O)N1CCC(NC(=O)NC23CC4CC(CC(C4)O2)C3)CC1` to `CC(=O)c1ccc(N2CCC(NC(=O)NC34CC5CC(CC(C5)O3)C4)CC2)cc1`, the pIC50 rises from 6.71 to 7.08 (0.37 log units). The second is the more potent here.

First: O=C(Nc1ccc(F)c(F)c1F)NC12CC3CC(CC(C3)O1)C2
Second: O=C(NC1CCN(C(=O)c2ccccc2F)CC1)NC12CC3CC(CC(C3)O1)C2
The pIC50 of the first is 0.33 log units higher: 7.67 for the first, 7.34 for the second. The first is the more potent here.

pIC50: −log10 of the molar value.
